From patent US6252121A, “Metal-ligand complex catalyzed processes” (Union Carbide Chemicals & Plastics Technology Corporation, priority 1999, dated 2001) come the findings set out here.

Bounds are passed on as bounds.

The first series is described as follows: Rhodium partition coefficient, hexane/dialdehyde system. The note with it: Ligand E.
As to `CCCCCC(C)(C)c1ccc(OP(Oc2ccc(C(C)(C)CCCCC)cc2C(C)(C)CCCCC)Oc2ccc(C(C)(C)CCCCC)cc2C(C)(C)CCCCC)c(C(C)(C)CCCCC)c1` [Ligand E], the “partition coefficient for the rhodium” value was 59.

The nature of another series: Ligand partition coefficient, hexane/acetonitrile distribution test (HPLC). Particulars: hexane:acetonitrile (1:1) solvent system.
Turning to `CC(C)(c1ccccc1)c1ccc(OP(Oc2ccc(C(C)(C)c3ccccc3)cc2C(C)(C)c2ccccc2)Oc2ccc(C(C)(C)c3ccccc3)cc2C(C)(C)c2ccccc2)c(C(C)(C)c2ccccc2)c1` [Ligand A], the “partition coefficient of the ligand (Kpartition)” value is reported as 4.1. In the case of `CC(C)(C)c1ccccc1OP(Oc1ccccc1C(C)(C)C)Oc1ccccc1C(C)(C)C` [Ligand B], the “partition coefficient of the ligand (Kpartition)” value was 8.7. Take `CC(C)(C)c1ccc(OP(Oc2ccc(C(C)(C)C)cc2C(C)(C)C)Oc2ccc(C(C)(C)C)cc2C(C)(C)C)c(C(C)(C)C)c1` [Ligand C]: the “partition coefficient of the ligand (Kpartition)” value worked out at 260. In the case of `CCC(C)(C)c1ccc(OP(Oc2ccc(C(C)(C)CC)cc2C(C)(C)CC)Oc2ccc(C(C)(C)CC)cc2C(C)(C)CC)c(C(C)(C)CC)c1` [Ligand D], the “partition coefficient of the ligand (Kpartition)” value amounted to 400. For the molecule `CCCCCC(C)(C)c1ccc(OP(Oc2ccc(C(C)(C)CCCCC)cc2C(C)(C)CCCCC)Oc2ccc(C(C)(C)CCCCC)cc2C(C)(C)CCCCC)c(C(C)(C)CCCCC)c1` [Ligand E], the “partition coefficient of the ligand (Kpartition)” value came out at 970. As to `CCCCCCCCCC(C)(C)c1ccc(OP(Oc2ccc(C(C)(C)CCCCCCCCC)cc2C(C)(C)CCCCCCCCC)Oc2ccc(C(C)(C)CCCCCCCCC)cc2C(C)(C)CCCCCCCCC)c(C(C)(C)CCCCCCCCC)c1` [Ligand F], the “partition coefficient of the ligand (Kpartition)” value is given as > 1000.
